# Data taken from PubChem BioAssay AID588453 (National Center for Advancing Translational Sciences (NCATS), 2011).
# The chains behind the UniProt entries cited, without tags or fusion partners.
# UniProt O89049, whole entry: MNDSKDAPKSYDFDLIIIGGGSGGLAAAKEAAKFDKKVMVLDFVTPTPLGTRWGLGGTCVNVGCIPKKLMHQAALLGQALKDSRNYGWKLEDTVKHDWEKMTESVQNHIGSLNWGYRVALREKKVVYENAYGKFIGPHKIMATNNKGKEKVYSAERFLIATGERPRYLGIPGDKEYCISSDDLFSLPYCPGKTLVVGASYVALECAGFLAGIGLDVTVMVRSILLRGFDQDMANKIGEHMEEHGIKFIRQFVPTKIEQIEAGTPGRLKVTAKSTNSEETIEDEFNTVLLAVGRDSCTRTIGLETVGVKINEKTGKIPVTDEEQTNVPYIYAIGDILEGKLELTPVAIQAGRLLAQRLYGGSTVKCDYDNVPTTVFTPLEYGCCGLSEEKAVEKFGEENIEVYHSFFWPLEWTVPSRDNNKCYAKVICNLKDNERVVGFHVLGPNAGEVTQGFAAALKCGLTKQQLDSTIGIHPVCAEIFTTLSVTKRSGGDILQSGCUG
# The list shows a part of the results, in another mix than the full data. Inconclusive results are not listed. Calls of active or inactive are those of the source. Calls come from the whole dose curve; as a rule, active = well fitted inhibition curve with a large enough effect; inconclusive = small, poorly fitted or top-dose-only effect; inactive = no such curve, though single readings can be large or run the other way.
# Target: Thioredoxin reductase 1, cytoplasmic (Rattus norvegicus) (UniProt O89049)
# Assay: qHTS Assay for Inhibitors of Mammalian Selenoprotein Thioredoxin Reductase 1 (TrxR1): qHTS; note: nearly all actives have a fitted effect of over 65% in size
# Details: recombinant rTrxR1, NADPH fluorescence consumption, selenite substrate; at 114 µM (top of the series)
# % is set by controls: 0 for no effect and ±100 for the full control effect.
row,Structure (SMILES),"activity change, negative = inhibition"
1,CP(=O)(Nc1ccccc1)Oc1ccc(F)cc1 (stereo unspecified),inactive: 11.7%
